# Measured values published in PMC11187217, “Anti-adhesive, anti-biofilm and fungicidal action of newly synthesized gemini quaternary ammonium salts” (Scientific Reports, 2024).
# Test system: Salmonella Typhimurium TA98
# Test: Mutagenicity, Ames test
# Details: TA98, positive control 100 μg/mL
# Procedure: The mutagenic potential of the tested gemini QAS was determined using the Ames test[83] using Salmonella Typhimurium TA98 and Salmonella Typhimurium TA100 with defects in histidine biosynthesis. The culture of S. Typhimurium TA98 and S. Typhimurium TA100 was incubated with shaking at 37 °C for 18 h, centrifuged (3000 rpm, 5 min) and OD = 1.5 was determined, at a wavelength of λ = 590 nm. The agar was dissolved and cooled to 42 °C. […] The media were incubated for 48 h at 37 °C. The positive control for the S. Typhimurium TA98 strain was acriflavin (100 μg/ml), and for the S. Typhimurium TA100 strain, sodium azide (15 μg/ml). The negative control was the culture without tested compound and with NaCl (0,9%). After incubation, the colonies were counted and the mutagenicity index (MR) was determined—the ratio of the number of revertants resulting from the mutagenic effect of the tested compound to the number of spontaneous revertants. Experiment was performed in three repetitions.
substance,measurement,setting,value
acriflavine [reference compound],Mutagenicity ratio (MR),,2.85
same,Number of colonies,± SD,65.0 ± 1
